We go through 63 compounds from PubChem BioAssay AID602405 (Broad Institute, 2012).

The structures appear in SMILES notation. The entries are a selection whose mix differs from that of the whole data set. Activity calls are given as the source filed them. No stated cut-off is given here; in the data, active means inhibition above about 16% (passing the limit was not always enough); inconclusive means no clear call, values can overlap the other calls; inactive means below that.

A word on the inhibition: it is the drop in the measured response relative to a control, in per cent.

The test relates to UDP-N-acetylbacillosamine N-acetyltransferase PglD (Campylobacter jejuni). Put plainly: blockers of PglD enzyme activity – biochemical, DTNB colorimetric, single point, primary screen (AID 602405). The conditions noted are these: purified PglD enzyme, DTNB colorimetric CoA detection; at 12.5 µM; hits give high values.
In the case of `Clc1n[nH]nc1-c1nn[nH][15n]1`, the inhibition is inactive: -0.282%.

Regarding `O=P1(N(CCCl)CCCl)NCCC(C(F)(F)F)O1` (stereo not drawn), the inhibition is inactive: -1.52%.

In the case of `CC(C)(C)C(=O)NC(Sc1ncccn1)C(Cl)(Cl)Cl` (stereo not drawn), the inhibition is inactive: 0.698%.

For `CN(CCCl)Cc1cc(Cl)c(NC2=NCCN2)c(Cl)c1`, the inhibition was inactive: -0.432%.

With `CCC1=CC2Cc3nc4ccc(Cl)cc4c(N)c3C(C1)C2` (stereo not drawn), the inhibition is inactive: 2.88%.

Consider `O=P1(Nc2ccccn2)COc2ccccc2OC1`, for which the inhibition is inactive: -1.49%.

For `CCOP(=O)(NC(=NC(C)c1ccccc1)NC(C)c1ccccc1)OCC` (stereo not drawn), the inhibition is inactive: -4.07%.

Turning to `CN(C(=O)Cc1ccc(Cl)c(Cl)c1)[C@@H]1CCCC[C@H]1N1CCCC1`, the inhibition is inactive: 1.41%.

Regarding `CC(C)/C=N\N=C(\N)N[N+](=O)[O-]`, the inhibition was inactive: -1.25%.

Turning to `Cc1nn(-c2ccccc2)c2c1P(=O)(N1CCOCC1)N(C)C(c1ccccc1)=N2` (stereo not drawn), the inhibition was inactive: -9.65%.

`Cc1ccc(C(=O)OC2CN3CCC2CC3)cc1` (stereo not drawn): the inhibition was inactive: -3.44%.

As for `CC1CCC(C(C)C)C(OP(=O)(Nc2ccccn2)c2ccccc2)C1` (stereo not drawn), the inhibition is inactive: 1.31%.

In the case of `NS(=O)(=O)c1cccc(NC(=O)COC(=O)C(O)(c2ccccc2)c2ccccc2)c1`, the inhibition is inactive: 1.28%.

Take `O=P1(Nc2ccc(Br)cn2)COc2ccccc2OC1`: the inhibition was inactive: -2.13%.

`Cc1ccc(OCC(=O)OC2CN3CCC2CC3)cc1` (stereo not drawn): the inhibition is inactive: -0.784%.

In the case of `O=[As](O)(c1cccs1)c1cccs1`, the inhibition was inactive: -1.65%.

As to `Nc1cccc([As](=O)(O)c2ccccc2)c1`, the inhibition is inactive: 1.06%.

For `O=P1(Nc2ncccn2)COc2ccccc2OC1`, the inhibition was inactive: 1.59%.

As to `Cc1ccc(S(=O)(=O)N(CCCN)CCCc2c(C)nc(N)[nH]c2=O)cc1`, the inhibition was inactive: 0.419%.

Consider `Nc1ccccc1[As](=O)(O)c1ccccc1`, for which the inhibition is inactive: -0.405%.

Consider `CCOP1(=S)c2c(C)nn(CCC#N)c2N=C(c2ccccc2F)N1C` (stereo not drawn), for which the inhibition is inactive: 0.627%.

Consider `O=P(Nc1nccs1)(c1ccccc1)c1nc2ccccc2s1` (stereo not drawn), for which the inhibition is inactive: -2.4%.

Take `CN(C)C(=O)c1cc([N+](=O)[O-])cc2c1-c1c(cc([N+](=O)[O-])cc1[N+](=O)[O-])C2=O`: the inhibition was inactive: 3.58%.

As for `O=[N+]([O-])c1ccc2c(c1)nnn2O`, the inhibition was inactive: 8.69%.

Turning to `CN(C(=O)Cc1ccc(Cl)c(Cl)c1)[C@H]1CC[C@@]2(CCCO2)C[C@@H]1N1CCCC1`, the inhibition was inactive: 0.594%.

Take `N#CCCN(C(=O)COC(=O)C(O)(c1ccccc1)c1ccccc1)c1ccc(F)cc1`: the inhibition was inactive: 1.41%.

Consider `CN(C(=O)Cc1ccccc1)[C@@H]1CC[C@]2(CCCO2)C[C@H]1N1CCCC1`, for which the inhibition is inactive: 0.881%.

In the case of `CCOP1(=S)c2c(C)nn(CCC#N)c2N=C(c2ccc(F)cc2)N1C` (stereo not drawn), the inhibition was inactive: -5.88%.

For the compound `NC(=O)Nc1ccc([As](=O)(O)O)cc1`, the inhibition was inactive: -7.89%.

In the case of `O=[As](O)(c1cccc(O)c1)c1cccc(O)c1`, the inhibition is inactive: 0.666%.

With `Cc1cccc(OCC(=O)OC2CN3CCC2CC3)c1` (stereo not drawn), the inhibition was inactive: -0.187%.

As to `O=[As](O)(O)c1cccnc1`, the inhibition is inactive: 0.076%.

On to `CS(=O)(=O)c1ccc(Cl)c(NC(=O)COC(=O)C(O)(c2ccccc2)c2ccccc2)c1`, for which the inhibition was inactive: 4.15%.

Consider `O=C(OC1CN2CCC1CC2)c1ccc(Cl)cc1` (stereo not drawn), for which the inhibition is inactive: 0.816%.

For the compound `CCCOP(=S)(Nc1nc(N)cc(=O)[nH]1)OCCC`, the inhibition was inactive: -5.61%.

For `Cc1ccc(NCCc2c([N+](=O)[O-])cc([N+](=O)[O-])cc2[N+](=O)[O-])cc1`, the inhibition was inactive: 4.01%.

Turning to `Nc1cccc2c([As](=O)(O)O)cccc12`, the inhibition was inactive: 5.22%.

With `COc1cc(I)ccc1[As](=O)(O)O`, the inhibition was inactive: 6.59%.

In the case of `O=P1(N(CCCl)CCCl)Nc2ccccc2N1`, the inhibition was inactive: -3.02%.

For the compound `COc1ccc(CN2/C(=N\P(=O)(Oc3ccccc3)Oc3ccccc3)Cc3ccccc3C2C2CC2)cc1` (stereo not drawn), the inhibition is inactive: -1.37%.

On to `O=C(OC1CN2CCC1CC2)C12CC3CC(CC(C3)C1)C2` (stereo not drawn), for which the inhibition is inactive: -3.01%.

`Cc1cc(=O)[nH]c(N[N+](=O)[O-])n1`: the inhibition is inactive: 7.72%.

As for `COc1ccc(N/C(=N/P(=O)(N2CCOCC2)N2CCOCC2)N2CCOCC2)cc1`, the inhibition was inactive: -0.003%.

Consider `Cc1ccc(OP(=O)(Nc2ccc([N+](=O)[O-])cn2)Oc2ccc(C)cc2)cc1`, for which the inhibition was inactive: 4.05%.

Regarding `O=[As](O)(c1ccc(O)cc1)c1ccccc1O`, the inhibition was inactive: 1.69%.

Regarding `C[As](=O)(O)c1cccc(C(=O)O)c1`, the inhibition was inactive: -5.19%.

Turning to `O=[N+]([O-])c1ccc(-c2cc([N+](=O)[O-])c(O)c([N+](=O)[O-])c2)cc1`, the inhibition was inactive: -6.74%.

For the compound `CCN(CC)C(=S)SC(NC=O)C(Cl)(Cl)Cl` (stereo not drawn), the inhibition was inactive: -4.25%.

Take `O=C(OC1CN2CCC1CC2)c1cccc2[nH]cnc12` (stereo not drawn): the inhibition is inactive: 0.161%.

With `CC(C)c1ccc(OP(=O)(Nc2ccccn2)Oc2ccccc2F)cc1` (stereo not drawn), the inhibition was inactive: 1.83%.

Take `ClCCSc1nnc(-c2cccnc2)o1`: the inhibition was inactive: 0.656%.

In the case of `CCCCOc1ccc(C(=O)NCC2(N3CCCCC3)CCCCC2)cc1OC`, the inhibition was inactive: -1.68%.

As to `COP(=O)(OC)N1CC1c1ccccc1` (stereo not drawn), the inhibition is inactive: 2.67%.

Regarding `CC1CCNP(=O)(N(CCCl)CCCl)O1` (stereo not drawn), the inhibition was inactive: -0.842%.

In the case of `O=C(O)C(O)c1ccc(N(CCCl)CCCl)cc1` (stereo not drawn), the inhibition is inactive: -0.768%.

For the compound `CCOC(=O)Nc1ccc([As](=O)(O)O)c(O)c1`, the inhibition was inactive: 1.76%.

On to `O=[N+]([O-])c1ccc(Nc2ccc(Oc3ccc([N+](=O)[O-])cc3[N+](=O)[O-])cc2)c([N+](=O)[O-])c1`, for which the inhibition was inactive: 5.37%.

Regarding `O=C(Nc1ccncc1[N+](=O)[O-])c1ccc([N+](=O)[O-])cc1[N+](=O)[O-]`, the inhibition was inactive: -1.62%.

In the case of `O=C(O)C(=O)c1ccc(N(CCCl)CCCl)cc1`, the inhibition is inactive: 1.18%.

For the compound `COP1(=S)c2c(C)nn(CCC#N)c2N=C(c2ccc(F)cc2)N1C` (stereo not drawn), the inhibition was inactive: -3.07%.

In the case of `CCC(C)N(CC(C)C)C(=S)SC(NC(C)=O)C(Cl)(Cl)Cl` (stereo not drawn), the inhibition is inactive: -0.752%.

Consider `CCOC(=O)c1ccc(NC(=O)C(C)(CCl)SC)cc1` (stereo not drawn), for which the inhibition was inactive: -5.12%.

Consider `O=C(OC1CN2CCC1CC2)c1cccc([N+](=O)[O-])c1` (stereo not drawn), for which the inhibition was inactive: -1.85%.
